Reference: PMC9919490, “Synthesis and Biological Evaluation of Novel Dispiro-Indolinones with Anticancer Activity” (Molecules, 2023)

Tested on: P388
Format: in vivo
Description: To preliminary estimate the antitumor effect of the compound in vivo, transplant P388 and HCT116 xenograft mouse models were used.
Prior to the trials, the animals were split into different groups (five mice per group). One group was monitored as a control population, where the animals were kept untreated, while the other groups were subjected to the tested compound. […] Four independent trials were carried out.
For the first evaluation, the sample was initially injected i.p. on day 2 of the study, and the treatment was subsequently continued during the following 9 days (total 10 d course). The typical doses were calculated considering the average body weight of the animals (20 g) and ranged between groups 1 and 3; group 4 was assigned as a control population. […] To verify the obtained results, we performed the second evaluation using the following schedule: the first group was administered i.p. with 500 mg/kg (5000 mg/kg), the second group was given 750 mg/kg (7500 mg/kg), and the third group was given 1000 mg/kg (10,000 mg/kg). We also carried out the third trial with an appropriate dose of 1000 mg/kg. For p.o. administration (trial 4), we used a single dose (170 mg/kg) of the unmodified compound; the cumulative dose was 1700 mg/kg.
DBA2 mice were used as donors of cancerous mass; a total of 50 animals were recruited. Twenty-three conventional, immunodeficient female mice (BALB/c nude, 20–23 g) were housed in RAMS and used as donors and recipients for HCT116 cells.
For the evaluation of the compound against leucosis in vivo, we used 5 and 8 passages of P388 culture. […]

In the case of `CCOc1ccc(N2C(=O)C3(NC2=S)C(c2ccc(Cl)cc2)CN(C)C32C(=O)Nc3ccc(Br)cc32)cc1` (stereo not shown) [Compound 29], the “anticancer effect after p.o. administration” value (fourth trial, unmodified compound, p.o. 170 mg/kg o.d. 10 days) was “ineffective”, the “toxic effects after p.o. administration” value (mouse, in vivo, po, 170 mg/kg) was “no toxic effects were observed” and the “outcome at 1200 mg/kg” value (sample dose 1200 mg/kg) was “lethal outcomes”. The “anticancer effect at lower doses” value (second trial, lower doses (500 mg/kg o.d.)) was “did not provide any statistically significant results”.
